The values below are quoted from earlier work in patent publication US11957727B2, “Prevention of neuroinflammation associated memory loss using nutraceutical compositions” (priority 2020, dated 2024).

One data set concerns ulcerative colitis (UC). The note with it: 50 and 100 mg/kg/day, compared with MD group.
The next data set relates to iNOS. The note with it: 5 and 10 microM for 6-24 hr, versus macrophages without EGCG.

Turning to Epigallocatechin-3-gallate [EGCG], in the data set with ulcerative colitis (UC), the “disease activity index (DAI) and spleen index (SI)” value is “decreased DAIs and SIs”. Also, the “iNOS activity in soluble extracts” value with iNOS was “significantly lower”.
